Measured values: article PMC7052193, “Nanobody-enabled monitoring of kappa opioid receptor states” (Nature Communications, 2020)

Sequences of proteins named here, by UniProt entry; tags and fusion partners are left off. A change or cut given only in a name is not applied to a line headed by its entry.
UniProt P41145: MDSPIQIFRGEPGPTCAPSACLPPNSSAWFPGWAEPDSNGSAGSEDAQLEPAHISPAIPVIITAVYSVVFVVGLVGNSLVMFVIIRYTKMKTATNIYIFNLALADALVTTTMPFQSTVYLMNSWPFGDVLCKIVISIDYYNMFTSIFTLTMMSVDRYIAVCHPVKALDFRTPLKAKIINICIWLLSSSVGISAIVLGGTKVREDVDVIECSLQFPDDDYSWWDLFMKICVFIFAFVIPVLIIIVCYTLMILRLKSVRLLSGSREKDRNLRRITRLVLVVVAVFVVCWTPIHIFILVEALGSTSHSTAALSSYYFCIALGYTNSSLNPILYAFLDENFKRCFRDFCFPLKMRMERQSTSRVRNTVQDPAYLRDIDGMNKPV

Biological target: KOR (Homo sapiens, UniProt P41145)
Test: Tango arrestin recruitment assay
Assay type: cell-based
Details: apo (no Nb6 DNA)

In the case of `CO[C@]12CC[C@@]3(C[C@@H]1C(C)(C)O)[C@H]1Cc4ccc(O)c5c4[C@@]3(CCN1CC1CC1)[C@H]2O5`, the “Emax, Tango arrestin recruitment” value is reported as 55 ± 2%.
